# AlphaSeq binding of Ab-14 heavy chain variants to a spike HR2 peptide

The measurements come from Li et al. 2023 (doi:10.1038/s41467-023-39022-2) through the FLAb antibody collection.

Target peptide (SARS-CoV-2 spike, HR2 region): PDVDLGDISGINAS

Ab-14 is the parent antibody, in scFv form: VH, then a 15-residue (Gly4Ser)3 linker, then VL. The light chain is unchanged in all variants.
VH: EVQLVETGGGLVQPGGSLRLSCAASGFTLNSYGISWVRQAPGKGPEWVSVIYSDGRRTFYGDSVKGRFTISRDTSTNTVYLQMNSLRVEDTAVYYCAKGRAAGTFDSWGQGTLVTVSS
VL: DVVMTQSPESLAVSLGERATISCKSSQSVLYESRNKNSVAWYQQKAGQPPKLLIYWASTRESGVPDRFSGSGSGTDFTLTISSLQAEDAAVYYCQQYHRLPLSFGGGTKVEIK

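The parent was found by panning a naive human phage display library on the peptide. These sequences belong to a second round, designed from the earlier measurements on random variants of the parent. Group labels follow the data file (Ctrl: baseline library sampled from a position-specific scoring matrix, with some repeated check sequences; En: ensemble of fine-tuned language models; HC: hill climbing; Gen: genetic algorithm; Gibbs: Gibbs sampling; a sequence that several methods proposed may carry one label only). The scFvs were displayed on barcoded MATa yeast, the peptide on MATalpha yeast. After mating in shaken culture at 30 °C for 16 h, diploids were selected and their barcode pairs sequenced. Each replicate has its own calibration line, from reference interactions of the BCL2 family. There are six technical replicates.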

Each variant is given by its three heavy chain CDRs, as the data file delimits them; those of the parent are GFTLNSYGIS, VIYSDGRRTFYGDSVK, GRAAGTFDS.
Variants here have more than six changes.
Kd is apparent (estimated from mating counts) and averaged on the log scale over replicates with a signal. Smaller is tighter.
"no signal" means that the variant was in the library but no mating with the target was seen in any replicate; the authors take this as a sign of poor binding, and no number exists.
Entries are sorted by rising average, undetected variants last.
Nonspecific signal, from three strains lacking the peptide, appeared in 1% of pairings of all heavy chain designs, centred on 120 nM (5% of these signals below 7.0 nM); values are not corrected for it. Also given: how often the same scFv was detected with the empty control strains.
Values of this round are not directly comparable with the first-round values of the same sequences.
In the paper, a design with two or fewer of six values counts as a poor binder.
The parent sequence was in this pool as ten entries: three were never detected, three once, and four in most replicates, with averages from 2.2 nM to 240 nM.

The variant GFDLNEYGIS | VIYADGRRTFYADSVK | GENAGTFDV [En_Gen] gave 100 pM (6 of 6 replicates; controls 0 of 18). The variant GFDLNEYGIS | VIYADGRRTAYVDSVK | GNNAGTFDV [En_Gen] gave 110 pM (6 of 6 replicates; controls 0 of 18). The variant GFDLNEYGIS | VIYADGVRTAYSDSVK | GGNAGTFDM [En_Gen] gave 130 pM (6 of 6 replicates; controls 1 of 18). For GFDLNEYGIS | VIYADGMRTAYSDDVK | GQNAGTFDL [En_Gen], the assay gave 230 pM (6 of 6 replicates; controls 0 of 18). The variant GFDLNEYGIS | VIYADGRRTAYLDSVK | GNLAGTFDT [En_HC] showed 240 pM (6 of 6 replicates; controls 0 of 18). The variant GFDLNEYGIS | VIYADGRRTFYVDSVK | GVHAGTFDV [En_HC] gave 300 pM (6 of 6 replicates; controls 0 of 18).

For GFSLDEYGIS | VIYADGRRTFYADSVK | GNSAGTFDL [En_HC], the assay gave 330 pM (6 of 6 replicates; controls 1 of 18). For GFDLNEYGIS | VIYADGMRTAYSDSVK | GEVAGTFDE [En_Gen], the assay gave 360 pM (6 of 6 replicates; controls 1 of 18). With GFDLNEYGIS | VIYADGVRTAYADNVK | GQVAGTFDI [En_Gen] the result was 360 pM (6 of 6 replicates; controls 0 of 18). The variant GFDLNEYGIS | VIYADGMRTAYSDSVK | GQTAGTFDI [En_Gen] gave 360 pM (6 of 6 replicates; controls 0 of 18). The variant GFDLDEYGIS | VIYADGVRTFYADSVK | GNVAGTFDL [En_Gen] gave 380 pM (6 of 6 replicates; controls 0 of 18). For GFDLNEYGIS | VIYADGVRTAYADSVK | GNIAGTFDV [En_Gen], the assay gave 380 pM (6 of 6 replicates; controls 0 of 18).

The variant GFDLNEYGIS | VIYADGVRTAYTDSVK | GNNAGTFDI [En_Gen] showed 390 pM (6 of 6 replicates; controls 0 of 18). The variant GFDLNEYGIS | VIYADGVRTAYIDSVK | GNNAGTFDI [En_Gen] showed 400 pM (6 of 6 replicates; controls 1 of 18). The variant GFDLNEYGIS | VIYADGLRTSYDDSVK | GELAGTFDQ [En_HC] gave 420 pM (6 of 6 replicates; controls 0 of 18). The variant GFDLNEYGIS | VIYADGRRTAYTDSVK | GNEAGTFDV [En_Gen] showed 440 pM (6 of 6 replicates; controls 2 of 18). The variant GFDLNEYGIS | VIYADGRRTFYADSVK | GNVAGTFFD [En_HC] gave 460 pM (6 of 6 replicates; controls 0 of 18). The variant GFDLNEYGIS | VIYADGMRTFYSDSVK | GQSAGTFDA [En_HC] showed 460 pM (6 of 6 replicates; controls 0 of 18).

The variant GFDLDEYGIS | VIYADGKRTAYADSVK | GNNAGTFDT [En_Gen] showed 520 pM (6 of 6 replicates; controls 0 of 18). For GFNLDEYGIS | VIYADGRRTFYTDDVK | GEFAGTFDL [En_HC], the assay gave 560 pM (6 of 6 replicates; controls 0 of 18). With GFDLNEYGIS | VIYADGSRTFYSDSVK | GNTAGTFDV [En_HC] the result was 600 pM (6 of 6 replicates; controls 0 of 18). The variant GFDLNEYGIS | VIYADGTRTAYADSVK | GNVAGTFDM [En_Gen] gave 760 pM (6 of 6 replicates; controls 0 of 18). With GFDLNEYGIS | VIYADGVRTAYQDSVK | GNNAGTFDV [En_Gen] the result was 810 pM (6 of 6 replicates; controls 0 of 18). For GFDLNEYGIS | VIYADGKRSAYADSVK | GENAGTFDV [En_Gen], the assay gave 950 pM (6 of 6 replicates; controls 0 of 18).

The variant GFNLDEYGIS | VIYADGRRTFYSDNVK | GEVGGTFDI [En_HC] gave 1.0 nM (6 of 6 replicates; controls 0 of 18). The variant GFDLDEYGIS | VIYADGVRQAYADSVK | GENAGTFDV [En_Gen] showed 1.1 nM (6 of 6 replicates; controls 0 of 18). The variant GFDLNEYGIS | VIYADGRRTQYIDSVK | GEIAGTFDL [En_HC] showed 1.1 nM (6 of 6 replicates; controls 1 of 18). With GFDLNEYGIS | VIYADGRRTFYADSVK | GEAAGTFNQ [En_HC] the result was 1.3 nM (6 of 6 replicates; controls 0 of 18). With GFNLEDYGIS | VIYADGRRTFYVDSVK | GKVAGTFDL [En_HC] the result was 1.3 nM (6 of 6 replicates; controls 0 of 18). With GFDLDEYGIS | VIYADGSRTAYSDSVK | GTNAGTFDV [En_Gen] the result was 1.4 nM (6 of 6 replicates; controls 0 of 18).

For GFDLNEYGIS | VIYADGKRTAYADDVK | GNQAGTFDV [En_Gen], the assay gave 1.6 nM (6 of 6 replicates; controls 0 of 18). The variant GWDLEHYGIS | VIYADGKRSEYSDAVK | GQQAGTFNT [En_Gibbs] showed 1.8 nM (6 of 6 replicates; controls 0 of 18). The variant GFNLDEMGIS | VIYADGSRQVYADSFK | GHFGGNKIN [En_Gibbs] showed 2.1 nM (5 of 6 replicates; controls 0 of 18). The variant GFEIQEYGIS | VIYADGRRTAYAENVK | GTLAGTLST [En_Gibbs] showed 3.0 nM (4 of 6 replicates; controls 0 of 18). For GFNINEYGIS | VIYADGQRLSYDDKVK | GNITGTFNS [En_Gibbs], the assay gave 3.4 nM (6 of 6 replicates; controls 0 of 18). The variant GFTLEDYGIS | VIYADGRRTAYGNRVK | GRAAGTADS [Ctrl] gave 72 nM (5 of 6 replicates; controls 1 of 18).

With GADLNEYGIS | VIYADGSRVEYENSFK | GDVAGTFDS [En_Gibbs] the result was 240 nM (5 of 6 replicates; controls 2 of 18). The variant GFNLDEYGIS | VIYADGNRVFYADTVK | GLLGILYVV [En_Gibbs] showed no signal (0 of 6 replicates; controls 0 of 18). The variant GFLLDEYGIS | VIYADGQRTAYTDDVK | GYVGGIGTI [En_Gibbs] showed no signal (0 of 6 replicates; controls 0 of 18). The variant GFQLDEYGIS | VIYADGVRSSYVDSVK | GEITGTFSE [En_Gibbs] gave no signal (0 of 6 replicates; controls 0 of 18). The variant GFDLNEYGIS | VIYADGRRTQYIDSVK | GHVAGTFDS [En_HC] gave no signal (0 of 6 replicates; controls 1 of 18). The variant GFELGSYGIS | VIYSDGLRTFYGQQVK | GRAKKTFDS [Ctrl] gave no signal (0 of 6 replicates; controls 0 of 18).

With GFNLNEYGIS | VIYADGQRTSYIDGVK | GTNRVKGMG [En_Gibbs] the result was no signal (0 of 6 replicates; controls 0 of 18). With GFDLGEYGIS | VIYADGMRSAYTDKVK | GKGANIVKH [En_Gibbs] the result was no signal (0 of 6 replicates; controls 0 of 18).

The first 3 variants above that were never detected:

CDR-H1,CDR-H2,CDR-H3,group,apparent Kd,replicates with signal,control signals
GFNLDEYGIS,VIYADGNRVFYADTVK,GLLGILYVV,En_Gibbs,no signal,0/6,0/18
GFLLDEYGIS,VIYADGQRTAYTDDVK,GYVGGIGTI,En_Gibbs,no signal,0/6,0/18
GFQLDEYGIS,VIYADGVRSSYVDSVK,GEITGTFSE,En_Gibbs,no signal,0/6,0/18